Reference: PMC2151269, “Broad phase II and pharmacokinetic study of methoxy-morpholino doxorubicin (FCE 23762-MMRDX) in non-small-cell lung cancer, renal cancer and other solid tumour patients” (British Journal of Cancer, 1998)

Columns and labels:
[1] = Plasma pharmacokinetics, cycle 1 (HPLC with fluorescence detection); type: in vivo, human
[2] = Urinary excretion up to 96 h; type: in vivo, human; settings: urine collection up to 96 h

Substance: 13-dihydro-3'-deamino-3'-[2(S)-methoxy-4-morpholinyl] doxorubicin [13-dihydro metabolite]
- AUC (0-24 h) as % of MMRDX AUC 0-24 h [1]: 12%
- Urinary excretion as 13-dihydro metabolite, % of the MMRDX dose [2]: 2%
